The assay concerns the target hMT2 (Homo sapiens, UniProt P49286). Briefly: Saturation binding of iodinated radioligands, CHO-K1-hMT2 membranes. Conditions: saturation 0.01–2 nM radioligand, Scatchard.

Sequences of proteins named here, by UniProt entry; tags and fusion partners are left off.
UniProt P49286, whole entry: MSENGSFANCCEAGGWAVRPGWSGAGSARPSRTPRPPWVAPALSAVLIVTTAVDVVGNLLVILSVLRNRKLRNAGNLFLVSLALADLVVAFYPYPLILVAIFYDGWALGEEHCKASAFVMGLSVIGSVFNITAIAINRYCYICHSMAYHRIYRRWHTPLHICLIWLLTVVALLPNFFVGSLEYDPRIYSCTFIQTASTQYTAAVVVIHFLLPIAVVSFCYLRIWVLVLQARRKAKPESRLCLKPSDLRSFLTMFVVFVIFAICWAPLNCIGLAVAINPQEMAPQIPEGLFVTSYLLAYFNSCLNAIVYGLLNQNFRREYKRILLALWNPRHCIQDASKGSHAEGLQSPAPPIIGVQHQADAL

Take `COc1cc([125I])c(Cc2cc(OC)c(OC)cc2CC(=O)OC(C)(C)C)cc1OC`: the pKd (commonly the Kd on a negative log10 scale, so that one unit is a factor of ten) was 9.65 ± 0.07.

(Values after paper PMC3676766, “New Radioligands for Describing the Molecular Pharmacology of MT1 and MT2 Melatonin Receptors” (International Journal of Molecular Sciences, 2013).)
